Where a name gives a salt, the structure may show the parent alone.
Conditions: PAMPA

CN(C)CCN(Cc1cccs1)c1ccccn1 [methapyrilene HCl, methapyrilene]
permeability decrease with HA-855 + agar compared with agar alone: decrease the permeability in a greater extent than agar alone

Reference: paper PMC11906762, “Toward a high-throughput in vitro model for estimating vitreous humor permeability of topically applied drugs” (Scientific Reports, 2025)
